# Test results from patent US7737185B2 (Repros Therapeutics Inc., priority 2001, dated 2010).
# Conditions: for Serum anion gap: day 12 and washout; for Serum glucose: male baboons
Structure (SMILES),Serum anion gap,Serum glucose
"CCN(CC)CCOc1ccc(/C(=C(\Cl)c2ccccc2)c2ccccc2)cc1 [Enclomid, trans-clomiphene]",raised this parameter towards normal values,no increases with treatment
"CCN(CC)CCOc1ccc(/C(=C(/Cl)c2ccccc2)c2ccccc2)cc1 [Zuclomid, cis-clomiphene, reference compound]",lower values than the Enclomid group,within the normal range
